From article PMC4764553, “Human cytomegalovirus IE1 protein alters the higher-order chromatin structure by targeting the acidic patch of the nucleosome” (eLife, 2016)

Biological target: Human nucleosome core particle (human histone octamer with the 147-bp Widom 601 DNA) (human), P68431
Assay: ITC

B1: LANA peptide (N-terminal CTD of the latency-associated antigen of Kaposi's sarcoma-associated herpes virus) (peptide)
chain: MAPPGMRLRSGRSTGAPLTRGS
modifications: not checked
Q: Which Kd does the source give for B1 here?
A: The Kd was 0.25 µM.
